The chains behind the UniProt entries cited, without tags or fusion partners. Where a name states a change or a piece, a line headed by the entry shows the natural chain unless it says otherwise.
UniProt P30874: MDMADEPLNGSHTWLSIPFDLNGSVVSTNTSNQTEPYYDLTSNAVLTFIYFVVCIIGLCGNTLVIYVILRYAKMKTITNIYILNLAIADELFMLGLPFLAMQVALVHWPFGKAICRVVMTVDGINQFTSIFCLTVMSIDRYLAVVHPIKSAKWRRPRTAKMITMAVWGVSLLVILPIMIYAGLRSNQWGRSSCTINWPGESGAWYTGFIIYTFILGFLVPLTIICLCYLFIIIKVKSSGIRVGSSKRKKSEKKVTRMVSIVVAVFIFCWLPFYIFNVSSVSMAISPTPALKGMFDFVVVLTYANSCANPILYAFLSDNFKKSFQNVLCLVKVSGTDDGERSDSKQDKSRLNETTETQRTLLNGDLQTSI

According to ChEMBL document CHEMBL1143592, “N-terminal sugar conjugation and C-terminal Thr-for-Thr(ol) exchange in radioiodinated Tyr3-octreotide: effect on cellular ligand trafficking in vitro and tumor accumulation in vivo” (J Med Chem, 2005):

Target: Somatostatin receptor type 2 (Homo sapiens, UniProt P30874)
Assay: In vitro inhibition of [125I][Leu8,D-Trp22,Tyr25] somatostatin 28 binding to human somatostatin receptor type 2 expressed in CCL39 cells; (n=5)
Assay type: cell-based

IC50: 1.6 nM
SMILES: C[C@H](O)[C@@H](CO)NC(=O)[C@@H]1CSSC[C@H](NC(=O)[C@H](N)Cc2ccccc2)C(=O)N[C@@H](Cc2ccc(O)c(I)c2)C(=O)N[C@H](Cc2c[nH]c3ccccc23)C(=O)N[C@@H](CCCCN)C(=O)N[C@@H]([C@@H](C)O)C(=O)N1
